Measured values reported in article PMC4209800.
Several values for one entry are separate records, joined by “and”; a condition that tells them apart may be missing. Equal values may be shown once.

Protein sequences, listed by entry. Tags and fused reporters are not part of them. Residues count along the entry.
UniProt P08637, 17-254: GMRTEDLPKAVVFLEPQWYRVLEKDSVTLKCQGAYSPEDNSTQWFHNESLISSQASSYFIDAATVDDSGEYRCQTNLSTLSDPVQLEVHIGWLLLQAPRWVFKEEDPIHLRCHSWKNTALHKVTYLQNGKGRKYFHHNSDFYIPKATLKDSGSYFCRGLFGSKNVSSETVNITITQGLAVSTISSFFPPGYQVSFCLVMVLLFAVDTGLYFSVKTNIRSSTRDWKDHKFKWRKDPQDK

Tests used:
Assay in all cases: flow cytometry on cells; IgG pre-complexed with equimolar goat F(ab')2 against its light chain (anti-κ for Fog-1, anti-λ for B2), on CHO cells expressing a single human FcγRII or FcγRIII; complexes detected with FITC anti-goat IgG; mean fluorescence of ≥12 000 cells
[1] = molecular target: FcγRIIa, of allotypes 131R and 131H, and FcγRIIb
[2] = molecular target: human FcγRIIIa of allotype 158F, GPI-anchored (human) (UniProt P08637)
[3] = molecular target: human FcγRIIIa of allotype 158V, GPI-anchored (human)

fold less strongly bound than Fog-1 G1 [1]: 3 fold and 8 fold | fold lower binding than G1 [2]: 100 fold | fold lower binding than G1 [3]: 50 fold
Substance: Fog-1 G1Δnab (antibody)
